# Biological target: Heat shock protein HSP 90-beta/Hsp90 co-chaperone Cdc37 (Homo sapiens, UniProt P08238+Q16543)
# Amino acid sequences for entries named in this document (tags omitted). A change or cut given only in a name is not applied to a line headed by its entry.
# UniProt P08238: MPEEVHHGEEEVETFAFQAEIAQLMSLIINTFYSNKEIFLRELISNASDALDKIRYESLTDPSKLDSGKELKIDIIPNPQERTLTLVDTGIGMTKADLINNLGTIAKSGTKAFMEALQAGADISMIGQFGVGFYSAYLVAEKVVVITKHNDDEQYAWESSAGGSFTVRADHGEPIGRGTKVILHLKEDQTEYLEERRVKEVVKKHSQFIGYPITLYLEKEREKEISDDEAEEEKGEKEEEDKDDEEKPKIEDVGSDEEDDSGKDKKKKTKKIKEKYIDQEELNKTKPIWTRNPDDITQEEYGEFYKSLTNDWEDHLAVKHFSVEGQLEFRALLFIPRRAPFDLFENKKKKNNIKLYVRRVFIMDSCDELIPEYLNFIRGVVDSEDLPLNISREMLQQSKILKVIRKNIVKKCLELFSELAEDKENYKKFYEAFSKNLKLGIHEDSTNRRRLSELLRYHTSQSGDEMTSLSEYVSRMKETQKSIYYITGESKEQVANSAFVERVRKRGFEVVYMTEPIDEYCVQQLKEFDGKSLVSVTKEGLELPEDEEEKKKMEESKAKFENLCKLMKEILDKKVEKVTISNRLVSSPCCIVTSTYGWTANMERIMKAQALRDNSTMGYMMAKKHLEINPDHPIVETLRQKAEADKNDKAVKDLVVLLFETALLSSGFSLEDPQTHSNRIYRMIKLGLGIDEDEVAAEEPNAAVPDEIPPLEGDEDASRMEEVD
# UniProt Q16543: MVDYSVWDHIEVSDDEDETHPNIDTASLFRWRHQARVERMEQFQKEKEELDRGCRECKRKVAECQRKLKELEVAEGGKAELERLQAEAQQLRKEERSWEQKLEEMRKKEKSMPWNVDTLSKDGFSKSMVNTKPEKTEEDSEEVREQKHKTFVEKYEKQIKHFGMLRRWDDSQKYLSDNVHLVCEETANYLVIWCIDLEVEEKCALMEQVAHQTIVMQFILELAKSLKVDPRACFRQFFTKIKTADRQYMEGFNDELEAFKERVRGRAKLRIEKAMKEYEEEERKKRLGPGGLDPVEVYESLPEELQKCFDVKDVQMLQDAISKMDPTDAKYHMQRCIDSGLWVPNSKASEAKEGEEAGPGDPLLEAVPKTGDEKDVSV
# Assay: Disruption of His-tagged full length HSP90 (unknown origin)/GST-tagged Cdc37 (unknown origin) at 50 uM measured after 1 hr by HTRF method
# Format: protein-complex assay
# Method in brief: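 HTRF in PBS with […], pH 7.3: His-tagged full-length Hsp90 and GST-tagged Cdc37 (each 250 nM final) with compound, 37 °C for 1 h. Anti-GST-Cryptate and anti-6His-XL665 then added for 0.5 h at 37 °C. Time-resolved fluorescence read at ex 320 nm, em 665/620 nm; ratio (665/620) × 10 000.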
row,SMILES,inhibition [%]
1,C#CCOC(=O)[C@]1(C)CC[C@]2(C)CC[C@]3(C)C4=CC=C5C(=CC(=O)C(O)=C5C)[C@]4(C)CC[C@@]3(C)[C@@H]2C1,95.1
2,COCCOC(=O)[C@]1(C)CC[C@]2(C)CC[C@]3(C)C4=CC=C5C(=CC(=O)C(O)=C5C)[C@]4(C)CC[C@@]3(C)[C@@H]2C1,90.3
3,CC1=C(O)C(=O)C=C2C1=CC=C1[C@@]2(C)CC[C@@]2(C)[C@@H]3C[C@](C)(C(=O)OCc4ccccc4C)CC[C@]3(C)CC[C@]12C,91.2
4,CC1=C(O)C(=O)C=C2C1=CC=C1[C@@]2(C)CC[C@@]2(C)[C@@H]3C[C@](C)(C(=O)OCc4cccc(C)c4)CC[C@]3(C)CC[C@]12C,90.3
5,CC1=C(O)C(=O)C=C2C1=CC=C1[C@@]2(C)CC[C@@]2(C)[C@@H]3C[C@](C)(C(=O)OCC4CCCCC4)CC[C@]3(C)CC[C@]12C,91.4
